Experimental data as given in US10071095B2, “1,2,4-triazolo [4,3-A] pyridine derivatives and their use for the treatment of neurological and psychiatric disorders” (JANSSEN PHARMACEUTICALS, INC., priority 2009, dated 2018).

Protein sequences, listed by entry. Tags and fused reporters are not part of them. Residues count along the entry.
UniProt Q14416, 19-872 limits assumed: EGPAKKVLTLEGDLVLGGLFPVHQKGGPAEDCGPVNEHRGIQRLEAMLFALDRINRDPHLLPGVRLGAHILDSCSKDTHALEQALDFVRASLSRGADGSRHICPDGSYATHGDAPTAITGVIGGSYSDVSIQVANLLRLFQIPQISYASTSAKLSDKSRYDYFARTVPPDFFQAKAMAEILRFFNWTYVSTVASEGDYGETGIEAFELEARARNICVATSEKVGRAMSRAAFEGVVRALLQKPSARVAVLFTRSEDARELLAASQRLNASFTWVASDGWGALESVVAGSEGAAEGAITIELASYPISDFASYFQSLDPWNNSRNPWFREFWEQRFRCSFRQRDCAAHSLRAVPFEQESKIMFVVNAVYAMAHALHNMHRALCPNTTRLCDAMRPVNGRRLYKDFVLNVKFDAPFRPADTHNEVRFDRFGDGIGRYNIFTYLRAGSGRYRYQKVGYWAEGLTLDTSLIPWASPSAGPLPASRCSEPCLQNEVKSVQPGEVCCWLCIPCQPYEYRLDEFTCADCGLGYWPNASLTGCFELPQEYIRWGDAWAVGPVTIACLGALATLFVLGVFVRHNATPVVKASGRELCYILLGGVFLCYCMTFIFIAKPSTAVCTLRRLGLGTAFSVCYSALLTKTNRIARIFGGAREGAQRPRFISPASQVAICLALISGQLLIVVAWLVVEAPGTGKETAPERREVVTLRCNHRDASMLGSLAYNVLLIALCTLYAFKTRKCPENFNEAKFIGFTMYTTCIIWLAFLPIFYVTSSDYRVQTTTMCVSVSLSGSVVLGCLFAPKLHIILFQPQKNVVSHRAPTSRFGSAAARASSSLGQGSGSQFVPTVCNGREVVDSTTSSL

Tests used:
human mGluR2 receptor = human mGluR2 receptor (Homo sapiens, UniProt Q14416); test: [35S]GTPγS binding assay, positive allosteric modulation (GTPγS-PAM) in presence of EC20 glutamate; assay type: biochemical; conditions: in presence of glutamate at EC20; average pEC50 if more experiments; ‡ means tested once
[1] = test system: PCP-induced hyperlocomotion in male NMRI mice; test: Phencyclidine (PCP)-induced hyperlocomotion in mice (video tracking); conditions: for Mice ED50 (mg/kg) PCP-Inh., estimated ED50 (footnote a): inhibition of PCP-induced hyperlocomotion, estimated ED50 values (n = 3 per dose; 4-fold separation between doses)

CC1(c2ccc(F)cc2)CCN(Cc2ccn3c(CC4CC4)nnc3c2C(F)(F)F)CC1
GTPγS - hR2 PAM pEC50 (human mGluR2 receptor): 7.55
inhibition of PCP-induced hyperlocomotion in mice (in words) [1]: inhibited
Mice ED50 (mg/kg) PCP-Inh., estimated ED50 (footnote a) [1]: 12.6 ^a) mg/kg

Cc1c(CN2CCC(c3ccccc3)CC2)ccn2c(CC3CC3)nnc12
GTPγS - hR2 PAM pEC50 (human mGluR2 receptor): 5.83 ‡
inhibition of PCP-induced hyperlocomotion in mice (in words) [1]: inhibited
Mice ED50 (mg/kg) PCP-Inh., estimated ED50 (footnote a) [1]: 12.6 ^a) mg/kg

Fc1ccc(N2CCN(Cc3ccn4c(CC5CC5)nnc4c3Cl)CC2)c(F)c1
GTPγS - hR2 PAM pEC50 (human mGluR2 receptor): 6.41 ‡
inhibition of PCP-induced hyperlocomotion in mice (in words) [1]: inhibited
Mice ED50 (mg/kg) PCP-Inh., estimated ED50 (footnote a) [1]: 12.6 ^a) mg/kg

Fc1ccccc1C1CCN(Cc2ccn3c(CC4CC4)nnc3c2Cl)CC1
GTPγS - hR2 PAM pEC50 (human mGluR2 receptor): 7.06
inhibition of PCP-induced hyperlocomotion in mice (in words) [1]: inhibited
Mice ED50 (mg/kg) PCP-Inh., estimated ED50 (footnote a) [1]: 3.2 ^a) mg/kg

CCCc1nnc2c(C(F)(F)F)c(CN3CCN(c4ccc(F)cc4F)CC3)ccn12
GTPγS - hR2 PAM pEC50 (human mGluR2 receptor): 6.61 ‡
inhibition of PCP-induced hyperlocomotion in mice (in words) [1]: inhibited
Mice ED50 (mg/kg) PCP-Inh., estimated ED50 (footnote a) [1]: 1.25 ^a) mg/kg

Clc1ccccc1C1CCN(Cc2ccn3c(CC4CC4)nnc3c2Cl)CC1
GTPγS - hR2 PAM pEC50 (human mGluR2 receptor): 7.3
inhibition of PCP-induced hyperlocomotion in mice (in words) [1]: inhibited
Mice ED50 (mg/kg) PCP-Inh., estimated ED50 (footnote a) [1]: 20 ^a) mg/kg

CC1(c2ccc(F)cc2)CCN(Cc2ccn3c(CC4CC4)nnc3c2Cl)CC1
GTPγS - hR2 PAM pEC50 (human mGluR2 receptor): 6.4
inhibition of PCP-induced hyperlocomotion in mice (in words) [1]: inhibited
Mice ED50 (mg/kg) PCP-Inh., estimated ED50 (footnote a) [1]: 7.9 ^a) mg/kg

COc1cc(F)ccc1N1CCN(Cc2ccn3c(CC4CC4)nnc3c2Cl)CC1
GTPγS - hR2 PAM pEC50 (human mGluR2 receptor): 6.01

Fc1cccc(N2CCN(Cc3ccn4c(CC5CC5)nnc4c3C(F)(F)F)CC2)c1F
GTPγS - hR2 PAM pEC50 (human mGluR2 receptor): 7.71 ‡

Cc1cc(C)nc(N2CCN(Cc3ccn4c(CC5CC5)nnc4c3Cl)CC2)n1
GTPγS - hR2 PAM pEC50 (human mGluR2 receptor): 5.58 ‡

Fc1cnc(N2CCN(Cc3ccn4c(CC5CC5)nnc4c3Cl)CC2)c(F)c1
GTPγS - hR2 PAM pEC50 (human mGluR2 receptor): 5.96 ‡

Fc1ccc(OCC2CCN(Cc3ccn4c(CC5CC5)nnc4c3C(F)(F)F)CC2)c(F)c1
GTPγS - hR2 PAM pEC50 (human mGluR2 receptor): 7.24 ‡

CCc1nnc2c(C(F)(F)F)c(CN3CCN(c4ccc(F)cc4F)CC3)ccn12
GTPγS - hR2 PAM pEC50 (human mGluR2 receptor): 6.02
inhibition of PCP-induced hyperlocomotion in mice (in words) [1]: inhibited
Mice ED50 (mg/kg) PCP-Inh., estimated ED50 (footnote a) [1]: 3.2 ^a) mg/kg

CCc1nnc2c(C(F)(F)F)c(CN3CCC(c4ccccc4)CC3)ccn12
GTPγS - hR2 PAM pEC50 (human mGluR2 receptor): 6.84
inhibition of PCP-induced hyperlocomotion in mice (in words) [1]: inhibited
Mice ED50 (mg/kg) PCP-Inh., estimated ED50 (footnote a) [1]: 20 ^a) mg/kg

Cc1c(CN2CCC(c3ccc(F)cc3F)CC2)ccn2c(CC3CC3)nnc12
GTPγS - hR2 PAM pEC50 (human mGluR2 receptor): 6.21

Fc1ccc(N2CCCC3(CN(Cc4ccn5c(CC6CC6)nnc5c4Cl)C3)C2)cc1
GTPγS - hR2 PAM pEC50 (human mGluR2 receptor): 5.97 ‡

FC1(c2ccccc2)CCN(Cc2ccn3c(CC4CC4)nnc3c2Cl)CC1
GTPγS - hR2 PAM pEC50 (human mGluR2 receptor): 6.37
inhibition of PCP-induced hyperlocomotion in mice (in words) [1]: inhibited
Mice ED50 (mg/kg) PCP-Inh., estimated ED50 (footnote a) [1]: 1.25 ^a) mg/kg

CC1(C)OC2(CCN(c3ccn4c(CC5CC5)nnc4c3C3CC3)CC2)c2ccccc21
GTPγS - hR2 PAM pEC50 (human mGluR2 receptor): 6.73

CCCCc1nnc2c(C(F)(F)F)c(CN3CCN(c4ccc(F)cc4F)CC3)ccn12
GTPγS - hR2 PAM pEC50 (human mGluR2 receptor): 6.92
inhibition of PCP-induced hyperlocomotion in mice (in words) [1]: inhibited
Mice ED50 (mg/kg) PCP-Inh., estimated ED50 (footnote a) [1]: 3.1 ^a) mg/kg

C[C@H](c1ccc(F)cc1)N1CCN(c2ccn3c(CC4CC4)nnc3c2Cl)CC1
GTPγS - hR2 PAM pEC50 (human mGluR2 receptor): 6.33 ‡

COc1cc(F)ccc1C1CCN(Cc2ccn3c(CC4CC4)nnc3c2Cl)CC1
GTPγS - hR2 PAM pEC50 (human mGluR2 receptor): 6.87

CCCc1nnc2c(C(F)(F)F)c(CN3C[C@@H]4[C@H](C3)[C@H]4c3ccccc3)ccn12 (relative stereo)
GTPγS - hR2 PAM pEC50 (human mGluR2 receptor): 7.23 ‡

FC(F)(F)c1c(CN2CCc3oc4ccccc4c3C2)ccn2c(CC3CC3)nnc12
GTPγS - hR2 PAM pEC50 (human mGluR2 receptor): 6.87

Clc1c(CN2CCC(Oc3ccccn3)CC2)ccn2c(CC3CC3)nnc12
GTPγS - hR2 PAM pEC50 (human mGluR2 receptor): 5.84 ‡

CCCc1nnc2c(C(F)(F)F)c(CN3CCC(F)(c4ccccc4)CC3)ccn12
GTPγS - hR2 PAM pEC50 (human mGluR2 receptor): 6.5 ‡

COc1ccccc1N1CCN(Cc2ccn3c(CC4CC4)nnc3c2C(F)(F)F)CC1
GTPγS - hR2 PAM pEC50 (human mGluR2 receptor): 6.79

CCOc1c(F)cccc1N1CCN(Cc2ccn3c(CC4CC4)nnc3c2C(F)(F)F)CC1
GTPγS - hR2 PAM pEC50 (human mGluR2 receptor): 7.56

CC1(c2ccccc2F)CCN(Cc2ccn3c(CC(F)(F)F)nnc3c2Cl)CC1
GTPγS - hR2 PAM pEC50 (human mGluR2 receptor): 7.05
inhibition of PCP-induced hyperlocomotion in mice (in words) [1]: inhibited
Mice ED50 (mg/kg) PCP-Inh., estimated ED50 (footnote a) [1]: 3.2 ^a) mg/kg

FC(F)(F)c1c(CN2CCC(Oc3ccccn3)CC2)ccn2c(CC3CC3)nnc12
GTPγS - hR2 PAM pEC50 (human mGluR2 receptor): 6.63

Fc1ccc(N2CCCC3(CN(Cc4ccn5c(CC6CC6)nnc5c4C(F)(F)F)C3)C2)cc1
GTPγS - hR2 PAM pEC50 (human mGluR2 receptor): 6.72

Clc1c(CN2C[C@@H]3[C@H](C2)[C@H]3c2ccccc2)ccn2c(CC3CC3)nnc12 (relative stereo)
GTPγS - hR2 PAM pEC50 (human mGluR2 receptor): 7.13

COc1ccccc1C1CCN(c2ccn3c(OCC4CC4)nnc3c2Cl)CC1
GTPγS - hR2 PAM pEC50 (human mGluR2 receptor): 6.31 ‡

Clc1c(CN2CCc3oc4ccccc4c3C2)ccn2c(CC3CC3)nnc12
GTPγS - hR2 PAM pEC50 (human mGluR2 receptor): 6.11 ‡

CC1(C)OC2(CCN(Cc3ccn4c(CC5CC5)nnc4c3C(F)(F)F)CC2)c2ccccc21
GTPγS - hR2 PAM pEC50 (human mGluR2 receptor): 7.37

Fc1ccc(N2CC3(CCCN(Cc4ccn5c(CC6CC6)nnc5c4Cl)C3)C2)cc1
GTPγS - hR2 PAM pEC50 (human mGluR2 receptor): 6.97

C[C@@H]1CN(c2ccn3c(CC4CC4)nnc3c2C(F)(F)F)CCN1c1ccccc1
GTPγS - hR2 PAM pEC50 (human mGluR2 receptor): 6.73

C[C@H]1CN(c2ccn3c(CC4CC4)nnc3c2C(F)(F)F)CCN1c1cc(F)cc(F)c1
GTPγS - hR2 PAM pEC50 (human mGluR2 receptor): 7.23

CC1(c2ccc(F)cc2)CCN(Cc2ccn3c(CC(F)(F)F)nnc3c2Cl)CC1
GTPγS - hR2 PAM pEC50 (human mGluR2 receptor): 6.83

CCOc1c(F)cccc1C1CCN(Cc2ccn3c(CC4CC4)nnc3c2Cl)CC1
GTPγS - hR2 PAM pEC50 (human mGluR2 receptor): 7.26

Fc1cccc(F)c1C1CCN(Cc2ccn3c(CC4CC4)nnc3c2C(F)(F)F)CC1
inhibition of PCP-induced hyperlocomotion in mice (in words) [1]: inhibited
Mice ED50 (mg/kg) PCP-Inh., estimated ED50 (footnote a) [1]: 1.25 ^a) mg/kg

CC1(c2cccc(F)c2)CCN(Cc2ccn3c(CC4CC4)nnc3c2Cl)CC1
GTPγS - hR2 PAM pEC50 (human mGluR2 receptor): 6.74

CC1(c2ccccc2F)CCN(Cc2ccn3c(CC4CC4)nnc3c2C(F)(F)F)CC1
GTPγS - hR2 PAM pEC50 (human mGluR2 receptor): 7.55

COc1ccccc1N1CCN(Cc2ccn3c(CC4CC4)nnc3c2Cl)CC1
GTPγS - hR2 PAM pEC50 (human mGluR2 receptor): 5.71 ‡

CCCCc1nnc2c(C(F)(F)F)c(CN3CCC(c4ccccc4)CC3)ccn12
GTPγS - hR2 PAM pEC50 (human mGluR2 receptor): 7.55
inhibition of PCP-induced hyperlocomotion in mice (in words) [1]: inhibited
Mice ED50 (mg/kg) PCP-Inh., estimated ED50 (footnote a) [1]: 7.9 ^a) mg/kg

CCCc1nnc2c(C(F)(F)F)c(CN3CCC(c4ccccc4)CC3)ccn12
GTPγS - hR2 PAM pEC50 (human mGluR2 receptor): 7.29
Mice ED50 (mg/kg) PCP-Inh., estimated ED50 (footnote a) [1]: 7.9 ^a) mg/kg

C[C@@H]1CN(c2ccn3c(CC4CC4)nnc3c2Cl)CCN1c1cc(F)cc(F)c1
GTPγS - hR2 PAM pEC50 (human mGluR2 receptor): 6.81
